From patent US20080045535A1, “Prokineticin 2 receptor antagonists” (priority 2005, published 2008)
Several values for one entry are separate records, joined by “and”; a condition that tells them apart may be missing. Equal entries are not always repeated.

By UniProt entry, the sequences of proteins in these tests, tags left out.
UniProt Q8TCW9, whole entry: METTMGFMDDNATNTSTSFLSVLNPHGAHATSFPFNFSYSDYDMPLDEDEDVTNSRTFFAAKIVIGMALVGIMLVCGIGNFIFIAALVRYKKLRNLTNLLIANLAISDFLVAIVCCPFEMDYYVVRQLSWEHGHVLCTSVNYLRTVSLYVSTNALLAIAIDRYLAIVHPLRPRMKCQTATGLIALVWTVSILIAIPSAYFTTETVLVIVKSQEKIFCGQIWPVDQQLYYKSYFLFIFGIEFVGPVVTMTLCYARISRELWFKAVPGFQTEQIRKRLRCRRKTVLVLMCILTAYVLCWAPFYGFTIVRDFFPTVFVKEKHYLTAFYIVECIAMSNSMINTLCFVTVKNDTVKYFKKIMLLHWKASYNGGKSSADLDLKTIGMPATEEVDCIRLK

Target: HEK 293 GPR73 (prokineticin 1 receptor) expressing cells (Homo sapiens, UniProt Q8TCW9)
Experiment: PK1 functional assay: screening for PK1 antagonists on the FLIPR (calcium fluorescence)
Details: for Ca^2+ Mobilization % Inh @10 μM: compound at 10 μM, HEK 293 GPR73 cells, multiple values = repeat tests; for IC50: read-out: Ca^2+ Mobilization IC50, HEK 293 GPR73 cells, PK1 ligand at EC50, multiple values = repeat tests

Structure (SMILES) | Ca^2+ Mobilization % Inh @10 μM [%] | Ca^2+ Mobilization % Inh @10 μM (10 µM) | IC50
CCCOc1ccc(Cn2c(NCCNC(=N)N)nc(=O)n(Cc3ccc(Cl)c(Cl)c3)c2=O)cc1 | 89 | – | –
COc1ccc(Cn2c(NCCNC(=N)N)nc(=O)n(C(C)c3ccccc3)c2=O)cc1 (single isomer, unassigned) [26] | – | 88% | 354 nM
COc1ccc(Cn2c(NCCNC(=N)N)nc(=O)n(C(C)c3ccccc3)c2=O)cc1 (single isomer, unassigned) [25] | – | 94% | 137 nM
CNC(=N)NCCNc1nc(=O)n(Cc2ccc(Cl)c(Cl)c2)c(=O)n1Cc1ccc(OC)cc1 | – | 100% and 98% | –
CCNC(=N)NCCNc1nc(=O)n(Cc2ccc(Cl)c(Cl)c2)c(=O)n1Cc1ccc(OC)cc1 | – | 99% and 101% | 14 nM and 25 nM

The next lines start with the values.

Ca^2+ Mobilization % Inh @10 μM [%] | Ca^2+ Mobilization % Inh @10 μM (10 µM) | IC50 | Structure (SMILES)
– | 100% and 101% | 61 nM and 97 nM and 113 nM | CC(C)Oc1ccc(Cn2c(NCCNC(=N)N)nc(=O)n(Cc3ccc(Cl)c(Cl)c3)c2=O)cc1
60 | – | – | CCCCCCn1c(NCCNC(=N)N)nc(=O)n(Cc2ccc(Cl)c(Cl)c2)c1=O
